Laboratory results published in PMC5543288, “Psychostimulant Effect of the Synthetic Cannabinoid JWH-018 and AKB48: Behavioral, Neurochemical, and Dopamine Transporter Scan Imaging Studies in Mice” (Frontiers in Psychiatry, 2017).

System: DA release in the nucleus accumbens (NAc) shell
Test: In vivo brain microdialysis, NAc shell extracellular DA
Set-up: species or system mouse
Conditions: awake freely moving mice; i.p.: amphetamine 10 mg/kg, cocaine 20 mg/kg, JWH-018 0.3 mg/kg, AKB48 0.3 mg/kg
Experimental: Male ICR (CD-1®) mice, 25–30 g (ENVIGO. Harlan Italy; S. Pietro al Natisone, Italy) were anesthetized with Isoflurane (3%; 200 ml/min) and implanted with vertical dialysis probe (1 mm dialyzing portion) prepared with AN69 fibers (Hospal Dasco, Bologna, Italy) in the NAc shell (A + 1.4, L 0.4 from bregma, V-4.8 from dura) according to the mouse brain atlas by Paxinos and Franklin ([40]). On the day following surgery, probes were perfused with Ringer’s solution (147 mM NaCl, 4 mM KCl, 2.2 mM CaCl2) at a constant rate of 1 µl/min. Dialyzate samples (10 µl) were injected into an HPLC equipped with a reverse phase column (C8 3.5 um, Waters, USA) and a coulometric detector (ESA, Coulochem II) to quantify DA. The first electrode of the detector was set at +130 mV (oxidation) and the second at −175 mV (reduction). The composition of the mobile phase was as follows: 50 mM NaH2PO4, 0.1 mM Na2-EDTA, 0.5 mM n-octyl sodium sulfate, 15% (v/v) methanol, pH 5.5. The sensitivity of the assay for DA was 5 fmol/sample. At the end of each experiment, animals were sacrificed and their brains removed and stored in formalin (8%) for histological examination to verify the correct placement of the microdialysis probe.

With `CC(N)Cc1ccccc1` (centres unmarked) [Amphetamine, reference compound] the “NAc shell extracellular DA levels” value was “significantly increased”.
In the case of `COC(=O)[C@H]1[C@@H](OC(=O)c2ccccc2)C[C@@H]2CC[C@H]1N2C` [Cocaine, reference compound], the “NAc shell extracellular DA levels” value is reported as “significantly increased”.
